Results reported in patent US5897874A, “Expulsion of material from a delivery device” (R. P. Scherer Corporation, priority 1993, dated 1999).

Assay: Drug release/delivery (pulse) time of capsule in stirred purified water at 37° C., spectrophotometric
Type: physicochemical
Settings: Example 3; standard deviation of 0.36; nominal delivery time five hours; hydrogel excipient
From the text: A coated gelatin capsule of the type shown in FIG. 1 was filled with hydrogel powder prepared as in Example 1 of particle size 425 to 710 microns, and metoclopramide drug included as a separate layer. The hydrogel powder was compacted leaving a 4.5 mm space between the top of the hydrogel layer 10 and the mouth of the body 6. The metoclopramide was placed on top and the body was sealed with a hydrogel plug. […] The nominal delivery time was three hours.
In order to assess the delivery time to release of the drug, each capsule was placed in a liter of purified water at 37° C. stirred with a paddle at 50 rpm. The presence of drug in the water was monitored spectrophotometrically.
The procedure was repeated with a capsule having a hydrogel plug designed to provide a nominal delivery time of five hours. […] The "space" represents the space between the top of the hydrogel layer and the mouth of the body after inclusion of the drug. The space allows insertion of the plug to its correct depth without interference from the hydrogel powder fill. In this case the hydrogel plug was recessed 0.5 mm below the upper end of the neck of the capsule body.
Drug release was monitored spectrophotometrically at 226 nm.

mean delivery time: 5.57 h
Substance: salbutamol sulphate
